Data taken from article PMC6416464 (Drug Metabolism Letters, 2018).

Protein sequences, listed by entry. Tags and fused reporters are not part of them.
UniProt P05177, whole entry: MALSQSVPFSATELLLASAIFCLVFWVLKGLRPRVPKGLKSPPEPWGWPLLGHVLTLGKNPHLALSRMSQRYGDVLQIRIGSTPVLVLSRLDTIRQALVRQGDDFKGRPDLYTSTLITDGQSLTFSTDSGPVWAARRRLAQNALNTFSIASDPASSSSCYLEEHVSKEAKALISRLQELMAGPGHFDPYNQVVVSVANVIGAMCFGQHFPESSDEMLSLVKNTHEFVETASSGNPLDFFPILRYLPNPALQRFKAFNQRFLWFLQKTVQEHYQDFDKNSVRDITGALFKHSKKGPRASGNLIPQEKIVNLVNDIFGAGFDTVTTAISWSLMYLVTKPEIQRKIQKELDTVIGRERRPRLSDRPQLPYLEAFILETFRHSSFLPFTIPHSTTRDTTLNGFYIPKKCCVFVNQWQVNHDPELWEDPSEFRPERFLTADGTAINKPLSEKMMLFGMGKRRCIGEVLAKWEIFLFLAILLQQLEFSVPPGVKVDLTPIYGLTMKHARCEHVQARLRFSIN

Molecular target: CYP1A2 (Homo sapiens, UniProt P05177)
Assay: CYP inhibition in human liver microsomes, CYP1A2
Details: inhibitor 10 µM, HLM, NI: No Inhibitin

Q: For `CCCSc1ccc2nc(NC(=O)OC)[nH]c2c1` [Albendazole, albendazole, reference compound], which “% Inhibition of Control Activity CYP1A2” value is on record?
A: 35.54%
